The target of experiment [1] is Muscarinic acetylcholine receptor M1 (Homo sapiens, UniProt P11229). Nature of the experiment: Displacement of [3H]NMS from human muscarinic M1 receptor expressed in CHO-K1 cells after 16 hrs by scintillation proximity assay. The class given is cell-based.
Experiment [2] has as its target Muscarinic acetylcholine receptor M4 (Homo sapiens, UniProt P08173). The experiment in a line: Displacement of [3H]NMS from human muscarinic M4 receptor expressed in CHO-K1 cells after 16 hrs by scintillation proximity assay. The class given is cell-based. (Loss of bound radioactivity is the signal in a displacement assay; it reports binding, not function.)

By UniProt entry, the sequences of proteins in these tests, tags left out. Where a name states a change or a piece, a line headed by the entry shows the natural chain unless it says otherwise.
UniProt P11229: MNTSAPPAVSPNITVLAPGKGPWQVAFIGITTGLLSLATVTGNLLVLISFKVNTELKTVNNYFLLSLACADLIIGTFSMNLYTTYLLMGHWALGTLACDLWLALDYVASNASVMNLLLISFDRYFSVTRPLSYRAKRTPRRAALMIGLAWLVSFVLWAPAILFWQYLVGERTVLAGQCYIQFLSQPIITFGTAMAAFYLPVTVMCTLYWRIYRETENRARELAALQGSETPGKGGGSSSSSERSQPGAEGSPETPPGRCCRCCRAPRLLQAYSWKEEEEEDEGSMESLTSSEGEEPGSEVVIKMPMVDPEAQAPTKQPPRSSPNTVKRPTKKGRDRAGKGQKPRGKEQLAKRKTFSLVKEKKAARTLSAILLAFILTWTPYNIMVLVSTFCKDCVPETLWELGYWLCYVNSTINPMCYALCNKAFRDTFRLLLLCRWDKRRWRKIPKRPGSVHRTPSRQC
UniProt P08173, whole entry: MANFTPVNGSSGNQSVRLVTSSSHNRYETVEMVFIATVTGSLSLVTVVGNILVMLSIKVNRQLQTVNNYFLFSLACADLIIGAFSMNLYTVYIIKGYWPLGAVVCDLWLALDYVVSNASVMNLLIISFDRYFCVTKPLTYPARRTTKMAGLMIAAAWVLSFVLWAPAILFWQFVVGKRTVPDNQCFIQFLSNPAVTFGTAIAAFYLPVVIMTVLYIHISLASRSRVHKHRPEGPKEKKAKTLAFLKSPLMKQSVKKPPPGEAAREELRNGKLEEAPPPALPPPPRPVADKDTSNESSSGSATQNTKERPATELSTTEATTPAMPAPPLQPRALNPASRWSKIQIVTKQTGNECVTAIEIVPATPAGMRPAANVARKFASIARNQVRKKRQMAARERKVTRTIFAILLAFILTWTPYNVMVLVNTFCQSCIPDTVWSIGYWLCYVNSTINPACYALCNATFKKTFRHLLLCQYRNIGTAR

For the molecule `C[N+]1(C)CCC(OC(=O)C(O)(c2ccccc2)C2CCCC2)C1` (configuration not stated) [GLYCOPYRRONIUM BROMIDE], the 50% inhibitory concentration (IC50) in experiment [1] is 0.126 nM; in experiment [2], 0.158 nM.

In general, IC50 refers to the concentration that gives 50% inhibition. A higher IC50 goes with lower potency.

(Values after ChEMBL document CHEMBL1287723, “The discovery of new spirocyclic muscarinic M3 antagonists” (Bioorg Med Chem Lett, 2010).)
